From patent US6855843B2, “Inhibitors of α4 mediated cell adhesion” (Tanabe Seiyaku Co., Ltd., priority 1998, dated 2005)

Protein sequences, listed by entry. Tags and fused reporters are not part of them. Residues count along the entry.
UniProt P13612, 34-1032 limits assumed: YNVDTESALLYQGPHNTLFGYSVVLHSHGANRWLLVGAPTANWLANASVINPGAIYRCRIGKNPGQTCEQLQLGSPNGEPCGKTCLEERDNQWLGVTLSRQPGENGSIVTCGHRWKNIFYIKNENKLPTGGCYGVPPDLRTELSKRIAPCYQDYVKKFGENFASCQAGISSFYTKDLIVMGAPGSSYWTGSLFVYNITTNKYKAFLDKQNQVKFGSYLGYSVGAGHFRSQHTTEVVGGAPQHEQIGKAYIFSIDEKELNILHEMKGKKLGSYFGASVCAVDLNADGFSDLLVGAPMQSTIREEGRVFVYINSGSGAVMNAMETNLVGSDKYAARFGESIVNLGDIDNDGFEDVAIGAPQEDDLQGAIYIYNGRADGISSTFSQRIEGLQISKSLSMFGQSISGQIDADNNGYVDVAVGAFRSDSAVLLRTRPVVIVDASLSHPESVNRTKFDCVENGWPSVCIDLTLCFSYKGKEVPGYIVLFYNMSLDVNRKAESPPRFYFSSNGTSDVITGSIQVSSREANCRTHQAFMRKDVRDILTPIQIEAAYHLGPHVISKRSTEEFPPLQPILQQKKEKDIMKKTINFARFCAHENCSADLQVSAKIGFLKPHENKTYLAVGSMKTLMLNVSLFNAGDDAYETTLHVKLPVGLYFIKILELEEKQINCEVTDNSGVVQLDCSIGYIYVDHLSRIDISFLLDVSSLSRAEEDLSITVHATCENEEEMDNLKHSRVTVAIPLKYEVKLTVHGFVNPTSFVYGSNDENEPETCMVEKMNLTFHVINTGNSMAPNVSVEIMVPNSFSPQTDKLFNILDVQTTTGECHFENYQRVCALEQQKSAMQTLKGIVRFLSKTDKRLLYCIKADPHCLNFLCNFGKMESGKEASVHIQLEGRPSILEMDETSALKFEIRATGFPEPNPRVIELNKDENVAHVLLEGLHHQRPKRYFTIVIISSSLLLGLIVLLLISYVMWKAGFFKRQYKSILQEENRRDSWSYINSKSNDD
UniProt P26010, 20-798 limits assumed: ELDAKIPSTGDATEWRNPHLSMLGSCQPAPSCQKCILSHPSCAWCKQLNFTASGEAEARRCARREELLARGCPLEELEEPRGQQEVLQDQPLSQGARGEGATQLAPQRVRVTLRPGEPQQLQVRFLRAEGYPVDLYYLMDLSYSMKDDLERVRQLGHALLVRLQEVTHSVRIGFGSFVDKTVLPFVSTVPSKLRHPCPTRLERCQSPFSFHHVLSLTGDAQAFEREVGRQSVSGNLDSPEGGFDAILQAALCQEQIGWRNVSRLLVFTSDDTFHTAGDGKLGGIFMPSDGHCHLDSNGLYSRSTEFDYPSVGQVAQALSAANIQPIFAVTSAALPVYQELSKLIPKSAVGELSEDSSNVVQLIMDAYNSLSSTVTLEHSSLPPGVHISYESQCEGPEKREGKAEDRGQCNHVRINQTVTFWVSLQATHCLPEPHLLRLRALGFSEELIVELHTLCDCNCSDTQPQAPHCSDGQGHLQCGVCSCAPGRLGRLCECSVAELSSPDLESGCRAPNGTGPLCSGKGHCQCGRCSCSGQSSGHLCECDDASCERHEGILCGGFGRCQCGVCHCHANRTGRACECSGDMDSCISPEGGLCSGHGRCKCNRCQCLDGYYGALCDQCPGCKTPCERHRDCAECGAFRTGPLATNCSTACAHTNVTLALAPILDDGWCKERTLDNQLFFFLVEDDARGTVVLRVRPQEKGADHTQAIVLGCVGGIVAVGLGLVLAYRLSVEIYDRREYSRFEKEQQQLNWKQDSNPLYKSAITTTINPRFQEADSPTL

Biological target: α4β7 (adhesion of RPMI cells to CS-1) (Homo sapiens, UniProt P13612+P26010)
Experiment: RPMI-CS-1 cell adhesion assay
Type: cell-based
Settings: read-out: RPMI-CS-1 IC50 value range; adhesion of RPMI B-cell line (expresses α4β7) to CS-1 peptide coated microwells

Row | SMILES | IC50
1 | COc1cccc(OC)c1-c1ccc(C[C@H](NC(=O)c2c(Cl)cc(-c3ccsc3)cc2Cl)C(=O)O)cc1 | < 0.3 µM
2 | COc1cccc(OC)c1-c1ccc(C[C@H](NC(=O)c2c(Cl)cc(-c3cscn3)cc2Cl)C(=O)O)cc1 [Example 307, N-[4-(1,3-Thiazol-4-yl)-2,6-dichlorobenzoyl]-4-(2,6-dimethoxyphenyl)-L-phenylalanine] | < 0.3 µM
